Earlier results in patent US20030178031A1, “Method for cancer pain treatment” (Du Pen, Inc., priority 1999, published 2003).

Conditions: human, in vivo

**Q.** Which effect on platelets does the source give for Choline magnesium trisalicylate here?
**A.** minimal or no effect on platelets
